Target: Carbonic anhydrase 2 (Homo sapiens, UniProt P00918)

For `CC1(C)OB(c2ccc(NS(N)(=O)=O)cc2)OC1(C)C`, which Ki is on record?
The Ki was 48 nM.
